This is an account of results in patent publication US6875777B2, “Compounds” (AstraZeneca AB, priority 1999, dated 2005).

In experiment [1] the target is cloned human δ receptor (HDELTA) (Homo sapiens, UniProt P41143). Kind of experiment: Binding assay on membranes of human 293S cells expressing cloned human δ receptor (HDELTA). The conditions noted are these: read-out: HDELTA, quantity and unit inferred.
For another experiment, the target named is HDELTA (Homo sapiens, UniProt P41143). The experiment in a line: HDELTA agonist potency and efficacy (EC50, % EMAX). The conditions noted are these: for EC50: read-out: HDELTA EC50.

SMILES strings stand for the structures.

Take `CCN(CC)C(=O)c1ccc(N(c2cccc(O)c2)C2CCN(Cc3c[nH]cn3)CC2)cc1`: the IC50 in experiment [1] is 1610 pM. Also, at HDELTA, the “HDELTA % EMAX” value is 105.52% and the EC50 worked out at 14100 pM.

Take `CCN(CC)C(=O)c1ccc(N(c2cccc(O)c2)C2CCN(Cc3ccncc3)CC2)cc1`: the IC50 in experiment [1] came to 1020 pM. At HDELTA, the “HDELTA % EMAX” value worked out at 114.6% and the EC50 came to 3920 pM.

As for `CCN(CC)C(=O)c1ccc(N(c2cccc(O)c2)C2CCN(Cc3nccn3C)CC2)cc1`, the IC50 in experiment [1] came out at 1710 pM. At HDELTA, the “HDELTA % EMAX” value is 87.74% and the EC50 was 13300 pM.

For the compound `CCN(CC)C(=O)c1ccc(N(c2cccc(O)c2)C2CCN(Cc3ccccc3)CC2)cc1` [Example 1], the IC50 in experiment [1] worked out at 436 pM. In addition, on HDELTA, the “HDELTA % EMAX” value is on record as 105.4% and the EC50 was found to be 610 pM.

As to `CCN(CC)C(=O)c1ccc(N(c2cc(O)ccc2F)C2CCN(Cc3ccccc3)CC2)cc1` [Example 6, N,N-diethyl-4-[(2-fluoro-5-hydroxyphenyl)[1-(phenylmethyl)-4-piperidinyl]amino]-benzamide], the IC50 in experiment [1] amounted to 466 pM. Besides, on HDELTA, the “HDELTA % EMAX” value came to 107.1% and the EC50 turned out to be 210 pM.

For `CCN(CC)C(=O)c1ccc(N(c2cccc(O)c2)C2CCN(Cc3ccoc3)CC2)cc1` [Example 15, N,N-diethyl-4-[[1-(3-furanylmethyl)-4-piperidinyl](3-hydroxyphenyl)amino]-benzamide], in experiment [1], the IC50 was 221 pM. In addition, at HDELTA, the “HDELTA % EMAX” value was 104.82% and the EC50 worked out at 220 pM.

For `CCN(CC)C(=O)c1ccc(N(c2cccc(O)c2)C2CCN(Cc3ccsc3)CC2)cc1` [Example 16, N,N-diethyl-4-[(3-hydroxyphenyl)[1-(3-thienylmethyl)-4-piperidinyl]amino]-benzamide], the IC50 in experiment [1] was determined as 271 pM. Further, at HDELTA, the “HDELTA % EMAX” value was determined as 96.86% and the EC50 is 220 pM.

Regarding `CCN(CC)C(=O)c1ccc(N(c2cccc(O)c2)C2CCN(Cc3ccc(I)cc3)CC2)cc1` [Example 19, N,N-diethyl-4-[(3-hydroxyphenyl)[1-[(4-iodophenyl)methyl]-4-piperidinyl]amino]-benzamide], the IC50 in experiment [1] turned out to be 1300 pM. Further, on HDELTA, the “HDELTA % EMAX” value is 103.63% and the EC50 stood at 1260 pM.

As to `CCN(CC)C(=O)c1ccc(N(c2cccc(O)c2)C2CCN(Cc3ccc(Br)cc3)CC2)cc1` [Example 20, N,N-diethyl-4-[[1-[(4-bromophenyl)methyl]-4-piperidinyl](3-hydroxyphenyl)amino]-benzamide], the IC50 in experiment [1] was 1320 pM. On HDELTA, the “HDELTA % EMAX” value was found to be 99.86% and the EC50 stood at 980 pM.

For the compound `CCN(CC)C(=O)c1ccc(N(c2cccc(O)c2)C2CCN(Cc3ccc(Cl)cc3)CC2)cc1` [Example 21, N,N-diethyl-4-[[1-[(4-chlorophenyl)methyl]-4-piperidinyl](3-hydroxyphenyl)amino]-benzamide], the IC50 in experiment [1] stood at 987 pM. At HDELTA, the “HDELTA % EMAX” value is 98.72% and the EC50 came out at 1520 pM.

Regarding `CCN(CC)C(=O)c1ccc(N(c2cccc(O)c2)C2CCN(Cc3ccc(F)cc3)CC2)cc1` [Example 22, N,N-diethyl-4-[[1-[(4-fluorophenyl)methyl]-4-piperidinyl](3-hydroxyphenyl)amino]-benzamide], the IC50 in experiment [1] turned out to be 2130 pM. Further, at HDELTA, the “HDELTA % EMAX” value was found to be 109.06% and the EC50 came out at 1230 pM.

Consider `CCN(CC)C(=O)c1ccc(N(c2cccc(O)c2)C2CCN(Cc3ccc(Cl)cc3Cl)CC2)cc1` [Example 23, 4-[[1-[(2,4-dichlorophenyl)methyl]-4-piperidinyl](3-hydroxyphenyl)amino]-N,N-diethyl-benzamide], for which the IC50 in experiment [1] is 1440 pM. Further, on HDELTA, the “HDELTA % EMAX” value came to 98.85% and the EC50 turned out to be 400 pM.

Take `CCN(CC)C(=O)c1ccc(N(c2cccc(O)c2)C2CCN(Cc3cccc(F)c3)CC2)cc1` [Example 24, N,N-diethyl-4-[[1-[(3-fluorophenyl)methyl]-4-piperidinyl](3-hydroxyphenyl)amino]-benzamide]: in experiment [1], the IC50 was determined as 704 pM. For the same compound, on HDELTA, the “HDELTA % EMAX” value was determined as 92.31% and the EC50 was found to be 2630 pM.

`CCN(CC)C(=O)c1ccc(N(c2cccc(O)c2)C2CCN(Cc3ccccc3F)CC2)cc1` [Example 25, N,N-diethyl-4-[[1-[(2-fluorophenyl)methyl]-4-piperidinyl](3-hydroxyphenyl)amino]-benzamide]: the IC50 in experiment [1] turned out to be 763 pM. In addition, at HDELTA, the “HDELTA % EMAX” value was 111.21% and the EC50 was found to be 1130 pM.

For the compound `CCN(CC)C(=O)c1ccc(N(c2cccc(O)c2)C2CCN(Cc3ccc(C)cc3)CC2)cc1` [Example 26, N,N-diethyl-4-[(3-hydroxyphenyl)[1-[(4-methylphenyl)methyl]-4-piperidinyl]amino]-benzamide], the IC50 in experiment [1] came out at 641 pM. Also, at HDELTA, the “HDELTA % EMAX” value is 104.65% and the EC50 was 1140 pM.

In the case of `CCN(CC)C(=O)c1ccc(N(c2cccc(O)c2)C2CCN(Cc3ccco3)CC2)cc1` [Example 27, N,N-diethyl-4-[[1-(2-furanylmethyl)-4-piperidinyl](3-hydroxyphenyl)amino]-benzamide], the IC50 in experiment [1] turned out to be 416 pM. At HDELTA, the “HDELTA % EMAX” value came to 101.34% and the EC50 was 1290 pM.

For the compound `CCN(CC)C(=O)c1ccc(N(c2cccc(O)c2)C2CCN(Cc3cccs3)CC2)cc1` [Example 28, N,N-diethyl-4-[(3-hydroxyphenyl)[1-(2-thienylmethyl)-4-piperidinyl]amino]-benzamide], the IC50 in experiment [1] came to 651 pM. Moreover, on HDELTA, the “HDELTA % EMAX” value is recorded as 106.46% and the EC50 was 700 pM.

On to `CCN(CC)C(=O)c1ccc(N(c2cccc(O)c2)C2CCN(Cc3ncc[nH]3)CC2)cc1` [Example 29, N,N-diethyl-4-{3-hydroxy[1-(1H-imidazol-2-ylmethyl)-4-piperidinyl]anilino}benzamide], for which the IC50 in experiment [1] came out at 300 pM. For the same compound, at HDELTA, the “HDELTA % EMAX” value is listed as 118.27% and the EC50 came out at 1170 pM.

Turning to `CCN(CC)C(=O)c1ccc(N(c2cccc(O)c2)C2CCN(Cc3ccccn3)CC2)cc1` [Example 30, N,N-diethyl-4-{3-hydroxy[1-(2-pyridinylmethyl)-4-piperidinyl]anilino}benzamide], the IC50 in experiment [1] is 240 pM. Also, at HDELTA, the “HDELTA % EMAX” value was 95.88% and the EC50 amounted to 260 pM.
